# Laboratory results as given in paper PMC6436534 (Chemistry (Weinheim an der Bergstrasse, Germany), 2019).
# Settings: traditional octanol water partition coefficient determination
substance,measurement,value
cubyl-warfarin [compound 7],log P,4.62
